The results in this text go back to PMC2798171.

The experiment concerns the target Plasmodium berghei macrophage migration inhibitory factor with C-terminal His6-tag (Plasmodium berghei). The experiment can be described thus: crystal structure.

“Plasmodium berghei macrophage migration inhibitory factor with C-terminal His6-tag (natural protein)” returned a stoichiometry N of 3.

As usually defined, the stoichiometry N is the number of molecules, sites or subunits per partner or assembly.
